The results in this text go back to PMC10227065, “Structures of Tetrahymena thermophila respiratory megacomplexes on the tubular mitochondrial cristae” (Nature Communications, 2023).

By UniProt entry, the sequences of proteins in these tests, tags left out. Where a name states a change or a piece, a line headed by the entry shows the natural chain unless it says otherwise.
UniProt Q950Y4: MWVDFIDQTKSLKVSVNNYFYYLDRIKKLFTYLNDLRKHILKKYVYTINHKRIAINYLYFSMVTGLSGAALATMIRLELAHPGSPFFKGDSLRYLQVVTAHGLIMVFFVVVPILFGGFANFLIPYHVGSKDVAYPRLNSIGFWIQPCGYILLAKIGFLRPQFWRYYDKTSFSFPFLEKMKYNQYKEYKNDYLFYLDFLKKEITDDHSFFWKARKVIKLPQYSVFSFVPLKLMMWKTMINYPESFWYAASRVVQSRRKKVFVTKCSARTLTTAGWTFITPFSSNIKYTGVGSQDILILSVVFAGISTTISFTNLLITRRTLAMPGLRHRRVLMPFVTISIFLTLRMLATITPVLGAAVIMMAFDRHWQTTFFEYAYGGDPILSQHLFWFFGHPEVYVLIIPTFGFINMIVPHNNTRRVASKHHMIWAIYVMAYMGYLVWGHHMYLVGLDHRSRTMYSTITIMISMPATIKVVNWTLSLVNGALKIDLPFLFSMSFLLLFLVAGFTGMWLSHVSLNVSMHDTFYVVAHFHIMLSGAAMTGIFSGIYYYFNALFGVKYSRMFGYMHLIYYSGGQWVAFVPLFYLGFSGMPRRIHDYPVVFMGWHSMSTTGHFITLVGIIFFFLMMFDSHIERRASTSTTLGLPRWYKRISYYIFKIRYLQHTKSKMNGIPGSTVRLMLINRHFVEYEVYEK

The experiment addresses Tt-CIV2 (Tetrahymena thermophila, UniProt Q950Y4). The experiment in a line: cyt c oxidation, […] nm. The settings on record: 100 mM NaN3; NADH (500 uM) or succinate (5 mM), 50 uM decylubiquinone, 100 uM Tt-cyt c, 10 nM megacomplex, pH 7.4, 0.1% digitonin, room temperature.

`[N-]=[N+]=N`: the “cyt c oxidation, 550 nm” value is “sodium azide could not inhibit cyt c reduction by Tt-CIII2 but can inhibit its oxidation”.
